Source: BindingDB's records for 26827140

Amino acid sequences for entries named in this document (tags omitted). Residues count along the entry.
UniProt P22303, 32-614 limits assumed: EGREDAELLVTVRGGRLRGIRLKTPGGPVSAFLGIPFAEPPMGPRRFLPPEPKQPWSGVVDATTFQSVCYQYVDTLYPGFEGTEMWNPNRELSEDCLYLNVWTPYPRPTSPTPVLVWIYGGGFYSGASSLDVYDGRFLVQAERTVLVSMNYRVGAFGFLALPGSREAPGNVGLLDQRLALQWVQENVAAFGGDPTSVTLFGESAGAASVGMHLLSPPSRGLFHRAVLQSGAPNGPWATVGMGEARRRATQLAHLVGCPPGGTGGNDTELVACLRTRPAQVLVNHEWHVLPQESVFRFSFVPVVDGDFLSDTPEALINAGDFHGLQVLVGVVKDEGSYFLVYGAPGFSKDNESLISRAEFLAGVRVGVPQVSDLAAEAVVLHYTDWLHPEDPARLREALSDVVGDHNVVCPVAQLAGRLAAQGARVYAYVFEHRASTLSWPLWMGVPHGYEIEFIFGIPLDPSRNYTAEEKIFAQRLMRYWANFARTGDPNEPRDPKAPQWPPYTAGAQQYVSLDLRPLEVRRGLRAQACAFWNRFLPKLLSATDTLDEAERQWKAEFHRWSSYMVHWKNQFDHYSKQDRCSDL

Biological target: Acetylcholinesterase (Homo sapiens, UniProt P22303)

BrCC1CN=C(Nc2ccccn2)S1 (stereo unspecified)
IC50: 110 µM
